Source: patent US12172993B2 (priority 2018, dated 2024)
pIC50: −log10 of the molar value. Values after ≈ are worked out from the molar mass of the structure shown.

Chains of the proteins cited; added tags and fusions are not shown. Lines headed by an entry give the natural chain unless they say otherwise; changes in a name come on top. Residues count along the entry.
UniProt Q16288, 32-839 limits assumed: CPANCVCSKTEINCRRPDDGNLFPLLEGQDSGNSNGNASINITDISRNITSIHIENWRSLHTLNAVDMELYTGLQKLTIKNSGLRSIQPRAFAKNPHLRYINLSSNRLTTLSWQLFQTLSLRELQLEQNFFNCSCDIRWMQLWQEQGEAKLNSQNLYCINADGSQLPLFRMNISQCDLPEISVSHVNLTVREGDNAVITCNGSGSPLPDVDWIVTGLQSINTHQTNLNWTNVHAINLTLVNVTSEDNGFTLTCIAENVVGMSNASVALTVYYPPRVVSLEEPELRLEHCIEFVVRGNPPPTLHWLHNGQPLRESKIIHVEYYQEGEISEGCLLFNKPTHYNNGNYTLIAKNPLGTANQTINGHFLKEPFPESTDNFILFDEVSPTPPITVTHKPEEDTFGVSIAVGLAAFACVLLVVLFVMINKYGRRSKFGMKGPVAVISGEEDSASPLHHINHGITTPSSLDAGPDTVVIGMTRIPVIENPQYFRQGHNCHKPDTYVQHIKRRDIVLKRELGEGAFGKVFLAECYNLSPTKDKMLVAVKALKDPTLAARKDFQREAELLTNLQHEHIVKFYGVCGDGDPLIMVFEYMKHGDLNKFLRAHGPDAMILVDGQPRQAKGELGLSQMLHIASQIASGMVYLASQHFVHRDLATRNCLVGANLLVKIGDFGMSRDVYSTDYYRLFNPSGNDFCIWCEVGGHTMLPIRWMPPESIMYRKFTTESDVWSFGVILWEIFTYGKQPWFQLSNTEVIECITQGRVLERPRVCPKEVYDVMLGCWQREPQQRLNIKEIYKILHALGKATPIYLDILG
UniProt P27037, 20-513 limits assumed: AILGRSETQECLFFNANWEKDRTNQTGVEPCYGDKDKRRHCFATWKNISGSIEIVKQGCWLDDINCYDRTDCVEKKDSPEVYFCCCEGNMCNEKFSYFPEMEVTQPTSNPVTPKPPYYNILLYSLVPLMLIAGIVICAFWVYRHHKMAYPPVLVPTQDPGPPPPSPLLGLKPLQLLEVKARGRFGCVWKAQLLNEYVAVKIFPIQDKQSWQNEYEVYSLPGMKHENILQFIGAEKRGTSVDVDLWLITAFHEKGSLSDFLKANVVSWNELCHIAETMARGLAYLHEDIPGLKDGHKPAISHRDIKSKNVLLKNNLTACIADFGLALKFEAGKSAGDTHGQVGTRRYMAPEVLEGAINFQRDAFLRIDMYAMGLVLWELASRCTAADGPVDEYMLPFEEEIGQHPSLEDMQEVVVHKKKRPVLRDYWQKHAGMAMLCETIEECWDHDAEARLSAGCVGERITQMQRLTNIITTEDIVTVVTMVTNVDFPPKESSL
UniProt P36897, 34-503 limits assumed: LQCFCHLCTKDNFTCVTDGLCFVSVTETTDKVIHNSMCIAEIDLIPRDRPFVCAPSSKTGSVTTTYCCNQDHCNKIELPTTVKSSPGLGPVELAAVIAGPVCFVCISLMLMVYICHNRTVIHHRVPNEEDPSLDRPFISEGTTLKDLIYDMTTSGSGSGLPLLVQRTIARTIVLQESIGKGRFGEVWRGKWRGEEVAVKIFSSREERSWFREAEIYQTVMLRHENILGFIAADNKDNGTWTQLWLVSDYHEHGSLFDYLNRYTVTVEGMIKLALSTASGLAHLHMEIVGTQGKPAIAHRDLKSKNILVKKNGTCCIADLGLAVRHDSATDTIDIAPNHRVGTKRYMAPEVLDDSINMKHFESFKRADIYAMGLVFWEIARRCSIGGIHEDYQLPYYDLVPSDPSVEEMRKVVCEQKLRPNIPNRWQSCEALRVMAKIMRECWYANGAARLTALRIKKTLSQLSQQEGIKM
UniProt P36896, 24-505 limits assumed: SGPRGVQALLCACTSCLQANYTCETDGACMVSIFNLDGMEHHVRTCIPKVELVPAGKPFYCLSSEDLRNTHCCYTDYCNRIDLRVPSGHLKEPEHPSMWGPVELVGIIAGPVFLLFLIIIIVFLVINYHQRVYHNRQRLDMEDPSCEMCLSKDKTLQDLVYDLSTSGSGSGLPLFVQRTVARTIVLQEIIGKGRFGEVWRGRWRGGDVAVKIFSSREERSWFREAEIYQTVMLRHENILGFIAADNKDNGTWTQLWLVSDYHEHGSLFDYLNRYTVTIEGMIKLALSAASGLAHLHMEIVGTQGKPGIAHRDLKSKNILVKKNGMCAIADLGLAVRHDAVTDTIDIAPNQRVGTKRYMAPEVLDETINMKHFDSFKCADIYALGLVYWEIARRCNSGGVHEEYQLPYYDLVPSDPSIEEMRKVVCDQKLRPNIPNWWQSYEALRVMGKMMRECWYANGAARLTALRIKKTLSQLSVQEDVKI
UniProt P07949, 29-1114 limits assumed: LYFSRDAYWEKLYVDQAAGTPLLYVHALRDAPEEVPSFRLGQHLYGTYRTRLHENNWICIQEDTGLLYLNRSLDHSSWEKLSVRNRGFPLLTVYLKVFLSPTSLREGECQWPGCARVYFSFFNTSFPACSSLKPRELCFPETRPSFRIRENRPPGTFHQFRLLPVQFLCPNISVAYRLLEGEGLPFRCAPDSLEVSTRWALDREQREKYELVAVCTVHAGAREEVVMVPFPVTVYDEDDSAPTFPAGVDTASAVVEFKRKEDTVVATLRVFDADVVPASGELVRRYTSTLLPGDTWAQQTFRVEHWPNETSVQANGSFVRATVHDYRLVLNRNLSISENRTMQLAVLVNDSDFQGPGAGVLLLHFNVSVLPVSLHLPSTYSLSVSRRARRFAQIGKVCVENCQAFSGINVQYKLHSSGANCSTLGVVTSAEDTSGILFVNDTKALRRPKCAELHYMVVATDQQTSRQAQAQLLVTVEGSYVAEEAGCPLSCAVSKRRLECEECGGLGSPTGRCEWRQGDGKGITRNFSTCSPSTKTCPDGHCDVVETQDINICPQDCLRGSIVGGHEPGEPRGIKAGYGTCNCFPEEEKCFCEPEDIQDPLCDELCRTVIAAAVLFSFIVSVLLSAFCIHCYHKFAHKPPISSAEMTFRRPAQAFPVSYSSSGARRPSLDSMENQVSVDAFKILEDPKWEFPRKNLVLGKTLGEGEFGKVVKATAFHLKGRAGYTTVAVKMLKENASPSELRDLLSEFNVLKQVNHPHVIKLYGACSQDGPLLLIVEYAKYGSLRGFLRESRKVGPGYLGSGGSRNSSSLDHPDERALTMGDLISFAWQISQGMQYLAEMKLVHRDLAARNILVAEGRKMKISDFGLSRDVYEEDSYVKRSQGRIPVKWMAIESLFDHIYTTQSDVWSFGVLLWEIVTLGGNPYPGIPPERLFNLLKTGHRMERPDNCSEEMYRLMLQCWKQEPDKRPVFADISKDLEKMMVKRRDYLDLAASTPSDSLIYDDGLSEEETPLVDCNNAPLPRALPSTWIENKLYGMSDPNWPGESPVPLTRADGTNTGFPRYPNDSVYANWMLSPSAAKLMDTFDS
UniProt P04629, 33-796 limits assumed: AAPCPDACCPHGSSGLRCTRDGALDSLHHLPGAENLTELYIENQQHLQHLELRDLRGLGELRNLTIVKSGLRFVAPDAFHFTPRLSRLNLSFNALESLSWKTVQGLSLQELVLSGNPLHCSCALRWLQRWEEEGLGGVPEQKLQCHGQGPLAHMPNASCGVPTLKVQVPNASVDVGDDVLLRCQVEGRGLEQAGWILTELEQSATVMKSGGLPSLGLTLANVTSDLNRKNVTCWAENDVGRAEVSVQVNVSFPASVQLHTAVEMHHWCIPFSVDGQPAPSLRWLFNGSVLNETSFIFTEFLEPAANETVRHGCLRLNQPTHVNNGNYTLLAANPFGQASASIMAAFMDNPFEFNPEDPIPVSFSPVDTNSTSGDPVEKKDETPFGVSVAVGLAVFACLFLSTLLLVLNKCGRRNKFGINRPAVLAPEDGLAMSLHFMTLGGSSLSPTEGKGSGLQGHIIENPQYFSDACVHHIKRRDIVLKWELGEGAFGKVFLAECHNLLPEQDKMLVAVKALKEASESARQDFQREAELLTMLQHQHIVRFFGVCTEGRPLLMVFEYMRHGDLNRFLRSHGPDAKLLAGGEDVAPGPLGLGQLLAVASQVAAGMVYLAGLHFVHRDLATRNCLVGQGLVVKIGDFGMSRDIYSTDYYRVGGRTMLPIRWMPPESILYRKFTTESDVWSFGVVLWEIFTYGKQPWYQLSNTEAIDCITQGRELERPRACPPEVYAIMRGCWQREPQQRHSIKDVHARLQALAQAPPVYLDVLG
UniProt Q16620, 32-822 limits assumed: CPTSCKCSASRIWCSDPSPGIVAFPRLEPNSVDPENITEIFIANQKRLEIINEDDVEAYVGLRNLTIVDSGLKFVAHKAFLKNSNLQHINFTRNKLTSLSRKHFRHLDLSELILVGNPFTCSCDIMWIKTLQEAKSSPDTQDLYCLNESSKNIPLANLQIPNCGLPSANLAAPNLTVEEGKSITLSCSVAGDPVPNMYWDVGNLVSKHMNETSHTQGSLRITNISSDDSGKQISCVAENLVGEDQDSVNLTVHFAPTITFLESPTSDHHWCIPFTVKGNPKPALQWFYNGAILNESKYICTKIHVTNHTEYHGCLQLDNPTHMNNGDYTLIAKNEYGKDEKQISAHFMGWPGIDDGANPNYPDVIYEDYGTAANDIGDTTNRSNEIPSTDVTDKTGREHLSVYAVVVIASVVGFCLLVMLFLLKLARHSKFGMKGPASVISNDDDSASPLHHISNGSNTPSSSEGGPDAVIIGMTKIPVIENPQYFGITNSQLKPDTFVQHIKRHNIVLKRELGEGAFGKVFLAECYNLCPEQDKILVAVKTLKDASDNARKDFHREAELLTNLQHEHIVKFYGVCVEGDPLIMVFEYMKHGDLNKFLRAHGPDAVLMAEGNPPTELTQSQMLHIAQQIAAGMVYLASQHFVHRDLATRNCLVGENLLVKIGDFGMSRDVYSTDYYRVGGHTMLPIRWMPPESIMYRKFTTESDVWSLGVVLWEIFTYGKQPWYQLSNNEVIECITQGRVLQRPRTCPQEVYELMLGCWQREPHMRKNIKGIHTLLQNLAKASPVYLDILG
UniProt P17948, 27-1338 limits assumed: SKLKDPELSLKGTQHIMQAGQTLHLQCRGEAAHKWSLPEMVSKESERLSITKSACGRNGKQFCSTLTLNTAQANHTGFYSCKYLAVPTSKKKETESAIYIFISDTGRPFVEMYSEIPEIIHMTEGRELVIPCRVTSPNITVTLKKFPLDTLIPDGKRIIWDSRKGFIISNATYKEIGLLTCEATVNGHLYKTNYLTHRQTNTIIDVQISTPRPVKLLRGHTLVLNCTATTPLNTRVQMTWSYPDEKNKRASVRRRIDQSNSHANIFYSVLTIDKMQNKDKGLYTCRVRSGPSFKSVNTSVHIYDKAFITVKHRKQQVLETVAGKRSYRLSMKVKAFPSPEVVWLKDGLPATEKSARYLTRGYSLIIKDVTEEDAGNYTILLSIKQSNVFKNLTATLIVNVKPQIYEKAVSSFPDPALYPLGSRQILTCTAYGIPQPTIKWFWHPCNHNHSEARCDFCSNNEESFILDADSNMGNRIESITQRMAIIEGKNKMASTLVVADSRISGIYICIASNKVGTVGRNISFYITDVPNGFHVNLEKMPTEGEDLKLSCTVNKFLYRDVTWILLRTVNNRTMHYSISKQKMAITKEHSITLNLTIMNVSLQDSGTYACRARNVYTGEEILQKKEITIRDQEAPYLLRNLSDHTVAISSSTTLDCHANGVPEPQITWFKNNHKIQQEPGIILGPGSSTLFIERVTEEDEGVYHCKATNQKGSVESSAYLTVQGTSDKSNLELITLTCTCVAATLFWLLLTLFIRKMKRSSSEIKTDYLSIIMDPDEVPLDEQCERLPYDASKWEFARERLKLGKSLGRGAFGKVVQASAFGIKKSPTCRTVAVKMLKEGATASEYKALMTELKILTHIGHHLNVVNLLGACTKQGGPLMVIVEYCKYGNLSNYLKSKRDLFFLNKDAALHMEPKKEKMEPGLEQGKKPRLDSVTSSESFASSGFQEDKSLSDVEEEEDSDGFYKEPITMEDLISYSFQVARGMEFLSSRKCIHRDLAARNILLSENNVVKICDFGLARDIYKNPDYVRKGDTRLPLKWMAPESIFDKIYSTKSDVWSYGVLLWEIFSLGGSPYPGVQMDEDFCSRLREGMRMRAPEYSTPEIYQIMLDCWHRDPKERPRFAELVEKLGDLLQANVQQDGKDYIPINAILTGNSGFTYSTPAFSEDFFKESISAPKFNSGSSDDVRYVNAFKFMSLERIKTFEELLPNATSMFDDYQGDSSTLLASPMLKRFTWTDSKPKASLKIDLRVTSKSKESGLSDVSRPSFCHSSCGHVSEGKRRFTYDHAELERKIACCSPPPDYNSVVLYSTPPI

What was measured:
[1] = molecular target: ABL1 M351T (Homo sapiens, UniProt P00519, M351T); format: biochemical
[2] = molecular target: ABL1 wt (Homo sapiens (Human), UniProt P00519); assay: biochemical
[3] = molecular target: ABL1 Q252H (Homo sapiens, UniProt P00519, Q252H); format: biochemical
[4] = molecular target: ABL1 Y253F (Homo sapiens, UniProt P00519, Y253F); format: biochemical
[5] = molecular target: ABL1 E255K (Homo sapiens, UniProt P00519, E255K); format: biochemical
[6] = molecular target: ABL1 H396P (Homo sapiens, UniProt P00519, H396P); format: biochemical
[7] = molecular target: ABL1 T315I (Homo sapiens, UniProt P00519, T315I); format: biochemical
[8] = molecular target: ABL1 F317I (Homo sapiens, UniProt P00519, F317I); format: biochemical
[9] = molecular target: ABL1 G250E (Homo sapiens, UniProt P00519, G250E); format: biochemical
[10] = molecular target: T1, MAP3K11 (Homo sapiens (Human), UniProt Q16584); assay: biochemical; conditions: read-out: Residual activity (%) at 1 μM, MAP3K11
[11] = molecular target: TRKC (Homo sapiens (Human), UniProt Q16288); assay: biochemical; conditions: read-out: Residual activity (%) at 1 μM
[12] = molecular target: T1, MAP3K11
[13] = molecular target: T2, MST4 (Homo sapiens (Human), UniProt Q9P289); assay: biochemical; conditions: read-out: Residual activity (%) at 1 μM
[14] = molecular target: BRAF (Homo sapiens (Human), UniProt P15056); assay: biochemical; conditions: read-out: Residual activity (%) at 1 μM, BRAF
[15] = molecular target: Aurora B (Homo sapiens (Human), UniProt Q96GD4); assay: biochemical; conditions: read-out: Residual activity (%) at 1 μM
[16] = molecular target: WEE1 (Homo sapiens (Human), UniProt P30291); assay: biochemical; conditions: read-out: Residual activity (%) at 1 μM
[17] = molecular target: MAP3K10 (Homo sapiens (Human), UniProt Q02779); assay: biochemical; conditions: read-out: Residual activity (%) at 1 μM
[18] = molecular target: MYLK2 (Homo sapiens (Human), UniProt Q9H1R3); assay: biochemical; conditions: read-out: Residual activity (%) at 1 μM
[19] = molecular target: ACV-R2A (Homo sapiens (Human), UniProt P27037); assay: biochemical; conditions: read-out: Residual activity (%) at 1 μM
[20] = molecular target: Aurora A (Homo sapiens (Human), UniProt O14965); assay: biochemical; conditions: read-out: Residual activity (%) at 1 μM
[21] = molecular target: p38-beta (Homo sapiens (Human), UniProt Q15759); assay: biochemical; conditions: read-out: Residual activity (%) at 1 μM
[22] = molecular target: ACV-R1 (Homo sapiens (Human), UniProt Q04771); assay: biochemical; conditions: read-out: Residual activity (%) at 1 μM
[23] = molecular target: TBK1 (Homo sapiens (Human), UniProt Q9UHD2); assay: biochemical; conditions: read-out: Residual activity (%) at 1 μM
[24] = molecular target: T3, TGFB-R1 (Homo sapiens (Human), UniProt P36897); assay: biochemical; conditions: read-out: Residual activity (%) at 1 μM
[25] = molecular target: T3, TGFB-R1; assay: biochemical
[26] = tested on: DOHH-2 cell line; assay: cells; conditions: Homo sapiens, DOHH-2, 96 h
[27] = molecular target: T2, MST4
[28] = molecular target: ACV-R1B (Homo sapiens (Human), UniProt P36896); assay: biochemical; conditions: read-out: Residual activity (%) at 1 μM
[29] = molecular target: SRC (GST-HIS-tag) (Homo sapiens (Human), UniProt P12931); assay: biochemical
[30] = molecular target: p38-alpha (Homo sapiens (Human), UniProt Q16539); assay: biochemical; conditions: read-out: Residual activity (%) at 1 μM
[31] = molecular target: T4, RET (Homo sapiens (Human), UniProt P07949)
[32] = molecular target: TRKA (Homo sapiens (Human), UniProt P04629); assay: biochemical; conditions: read-out: Residual activity (%) at 1 μM
[33] = molecular target: TRKB (Homo sapiens (Human), UniProt Q16620); assay: biochemical; conditions: read-out: Residual activity (%) at 1 μM
[34] = molecular target: T4, RET; assay: biochemical; conditions: read-out: Residual activity (%) at 1 μM, RET
[35] = molecular target: MAP3K9 (Homo sapiens (Human), UniProt P80192); assay: biochemical; conditions: read-out: Residual activity (%) at 1 μM
[36] = molecular target: RPS6KA6 (Homo sapiens (Human), UniProt Q9UK32); assay: biochemical; conditions: read-out: Residual activity (%) at 1 μM
[37] = tested on: WSU-NHL cell line; assay: cells; conditions: Homo sapiens, 96 h
[38] = molecular target: VEGF-R1 (Homo sapiens (Human), UniProt P17948); assay: biochemical; conditions: read-out: Residual activity (%) at 1 μM
[39] = physchem; conditions: kinetic from dmso stock

Cc1nc(Nc2ncc(C(=O)Nc3c(Br)ccnc3C)s2)cc(N2CCN(CCO)CC2)n1 [Compound C3, N-(4-bromo-2-methylpyridin-3-yl)-2-((6-(4-(2-hydroxyethyl)piperazin-1-yl)-2-methylpyrimidin-4-yl)amino)thiazole-5-carboxarmide]
pIC50 [1]: 7.43
pIC50 [2]: 7.74
pIC50 [3]: 7.53
pIC50 [4]: 7.79
pIC50 [5]: 6.95
pIC50 [6]: 7.49
pIC50 [7]: 4.36
pIC50 [8]: 6.08
pIC50 [9]: 7.00

Cc1nc(Nc2ncc(C(=O)Nc3c(C)cncc3Cl)s2)cc(N2CCN(CCO)CC2)n1 [Compound C4, N-(3-chloro-5-methylpyridin-4-yl)-2-((6-(4-(2-hydroxyethyl)piperazin-1-yl)-2-methylpyrimidin-4-yl)amino)thiazole-5-carboxamide]
pIC50 [1]: 7.71
pIC50 [2]: 8.04
pIC50 [3]: 7.82
pIC50 [4]: 7.96
pIC50 [5]: 7.29
pIC50 [6]: 7.88
pIC50 [7]: 4.63
pIC50 [8]: 6.72
pIC50 [9]: 7.34

Cc1nc(Nc2ncc(C(=O)Nc3c(C)csc3Cl)s2)cc(N2CCN(CCO)CC2)n1 [Compound C7, N-(2-chloro-4-methylthiophen-3-yl)-2-((6-(4-(2-hydroxyethyl)piperazin-1-yl)-2-methylpyrimidin-4-yl)amino)thiazole-5-carboxamide]
remaining activity at 1 µM [10]: 16%
remaining activity at 1 µM [11]: 29%
Residual activity (%) at 1 μM [12]: 16%
remaining activity at 1 µM [13]: 41%
remaining activity at 1 µM [14]: 8 to 9%
remaining activity at 1 µM [15]: 49%
remaining activity at 1 µM [16]: 33%
remaining activity at 1 µM [17]: 41%
remaining activity at 1 µM [18]: 51%
remaining activity at 1 µM [19]: 2 to 3%
remaining activity at 1 µM [20]: 37%
remaining activity at 1 µM [21]: 13%
remaining activity at 1 µM [22]: 12%
remaining activity at 1 µM [23]: 49%
remaining activity at 1 µM [24]: 1 to 2%
pIC50 [25]: ~6.31
GI50 [26]: ~9 nM
Residual activity (%) at 1 μM [27]: 41%
remaining activity at 1 µM [28]: 1 to 2%
pIC50 [29]: ~8.82
remaining activity at 1 µM [30]: 3 to 4%
Residual activity (%) at 1 μM [31]: 23%
remaining activity at 1 µM [32]: 29%
remaining activity at 1 µM [33]: 52%
remaining activity at 1 µM [34]: 23%
remaining activity at 1 µM [35]: 43%
remaining activity at 1 µM [36]: 49%
GI50 [37]: ~8 nM
remaining activity at 1 µM [38]: 50%

Cc1nc(Nc2ncc(C(=O)N[C@H]3CN4CCC3CC4)s2)cc(N2CCN(CCO)CC2)n1 [Compound C12, (R)-2-((6-(4-(2-hydroxyethyl)piperazin-1-yl)-2-methylpyrimidin-4-yl)amino)-N-(quinuclidine-3-yl)thiazole-5-carboxamide]
solubility kinetic [39]: 195 µM (≈ 92.2 µg/mL)
pIC50 [29]: > 7.00
